This is a selection; strong and weak results do not stand in their true shares. Records with an inconclusive call do not appear. The source made the active and inactive calls. Calls follow the shape of the dose curve; as a rule, active = well fitted inhibition curve with a large enough effect; inconclusive = small, poorly fitted or top-dose-only effect; inactive = no such curve, though single readings can be large or run the other way.
The compounds below were run against Histone-lysine N-methyltransferase EHMT2 (Homo sapiens) (UniProt Q96KQ7) (assay: qHTS Assay for Inhibitors of Histone Lysine Methyltransferase G9a). Conditions: G9a H3K9 monomethylation, AlphaScreen, 2 h; series mostly up to 59 µM; activity, negative = inhibition: at the top concentration.
% is scaled to controls: 0 for no effect and ±100 for the full control effect; potency is read from the fitted curve at half-maximal effect.
Also: nearly all actives have a fitted effect of over 75% in size.

Sequences of proteins named here, by UniProt entry; tags and fusion partners are left off. A change or cut given only in a name is not applied to a line headed by its entry.
UniProt Q96KQ7: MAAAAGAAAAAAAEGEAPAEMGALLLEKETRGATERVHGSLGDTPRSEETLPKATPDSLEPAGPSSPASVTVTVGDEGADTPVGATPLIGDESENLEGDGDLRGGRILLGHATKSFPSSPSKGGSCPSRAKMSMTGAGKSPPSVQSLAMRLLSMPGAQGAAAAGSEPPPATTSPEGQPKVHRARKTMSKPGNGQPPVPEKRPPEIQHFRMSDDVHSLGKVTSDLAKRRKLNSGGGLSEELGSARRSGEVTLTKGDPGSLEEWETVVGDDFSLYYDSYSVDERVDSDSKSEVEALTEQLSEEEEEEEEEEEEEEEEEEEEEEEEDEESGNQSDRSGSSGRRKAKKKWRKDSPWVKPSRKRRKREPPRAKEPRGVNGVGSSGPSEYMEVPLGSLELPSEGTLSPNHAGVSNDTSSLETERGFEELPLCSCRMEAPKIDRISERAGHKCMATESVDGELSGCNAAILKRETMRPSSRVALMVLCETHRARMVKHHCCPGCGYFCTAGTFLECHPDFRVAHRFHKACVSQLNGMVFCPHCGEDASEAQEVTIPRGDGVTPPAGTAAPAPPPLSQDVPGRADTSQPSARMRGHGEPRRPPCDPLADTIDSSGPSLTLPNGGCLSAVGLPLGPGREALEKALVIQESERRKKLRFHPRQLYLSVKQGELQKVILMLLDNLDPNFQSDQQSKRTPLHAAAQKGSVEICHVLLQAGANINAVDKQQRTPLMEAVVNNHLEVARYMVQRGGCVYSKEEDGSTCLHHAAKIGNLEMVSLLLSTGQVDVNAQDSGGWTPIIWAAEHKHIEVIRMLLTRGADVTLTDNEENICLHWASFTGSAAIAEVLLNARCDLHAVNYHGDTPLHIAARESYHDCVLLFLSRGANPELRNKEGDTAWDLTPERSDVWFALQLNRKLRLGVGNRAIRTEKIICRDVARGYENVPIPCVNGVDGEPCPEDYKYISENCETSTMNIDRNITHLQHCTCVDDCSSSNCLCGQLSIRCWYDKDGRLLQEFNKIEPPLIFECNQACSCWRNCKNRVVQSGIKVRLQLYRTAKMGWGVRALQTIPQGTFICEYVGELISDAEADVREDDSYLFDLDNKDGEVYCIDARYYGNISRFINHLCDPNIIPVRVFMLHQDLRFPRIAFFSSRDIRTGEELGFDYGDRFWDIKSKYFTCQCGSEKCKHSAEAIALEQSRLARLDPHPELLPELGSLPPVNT

Structure (SMILES) | activity, negative = inhibition | Potency
COc1ccc2cc([C@@H](C)C(=O)O)ccc2c1 | inactive: -3.27% | 
Cc1cnc(C(=O)NCCc2ccc(S(=O)(=O)NC(=O)NC3CCCCC3)cc2)cn1 |  | inactive
Cc1ccc(-c2csc(Nc3ccccc3)[n+]2CCc2ccccc2)cc1 |  | active: 22.4 µM
CCCCc1oc2ccccc2c1C(=O)c1cc(I)c(OCCN(CC)CC)c(I)c1 |  | inactive
CC1(C)N([O-])c2cc([N+](=O)[O-])ccc2[N+]1=O |  | active: 1.58 µM
CC[n+]1c(/C=C/N(C)c2ccccc2)oc2ccc(Cl)cc21 |  | active: 10 µM
O=C(O)COCCN1CCN(C(c2ccccc2)c2ccc(Cl)cc2)CC1 (stereo not drawn) | inactive: -35% | 
COc1ccc2cc([C@H](C)C(=O)O)ccc2c1 |  | inactive
O=C(O)COCCN1CCN([C@@H](c2ccccc2)c2ccc(Cl)cc2)CC1 | inactive: 20.5% [at 21.5 µM] | 
Nc1n[nH]c(CO)n1 |  | active: 70.8 µM
CC[n+]1c(/C=C/N(C)c2ccccc2)oc2ccccc21 |  | active: 44.7 µM
COc1ccc2cc(C(C)C(=O)O)ccc2c1 (stereo not drawn) | inactive: 13.3% | 
Cc1ccc(C2=NCN(c3ccc(C(=O)O)cc3)C(=S)N2)cc1 |  | active: 50.1 µM

— PubChem BioAssay AID504332 (National Center for Advancing Translational Sciences (NCATS), 2011)
